{
  "sequences": {"note": "The chains behind the UniProt entries cited, without tags or fusion partners.", "UniProt P62937, whole entry": "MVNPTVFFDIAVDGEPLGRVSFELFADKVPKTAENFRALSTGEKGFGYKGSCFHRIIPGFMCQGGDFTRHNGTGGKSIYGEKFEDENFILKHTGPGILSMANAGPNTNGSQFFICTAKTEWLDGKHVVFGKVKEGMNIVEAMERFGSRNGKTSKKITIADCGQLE"},
  "source": "patent US20190151403A1",
  "about": "“NOVEL CYCLOSPORIN DERIVATIVES AND USES THEREOF” (S&T Global Inc., priority 2016, published 2019)",
  "biological_target": "T1, Human recombinant CypA (Homo sapiens, UniProt P62937)",
  "T1 construct": "purchased Atgen",
  "assay": "Cyclophilin A PPIase inhibition, α-chymotrypsin-coupled assay",
  "format": "biochemical",
  "conditions": "10 nM human recombinant CypA, 5° C, succinyl-AAPF-pNA substrate",
  "protocol": "Inhibition of CyPA isomerase activity was assessed using the α-chymotrypsin-coupled assay adapted to a 96-well plate format. Human recombinant CypA (Atgen) was dissolved to 10 nM in isomerase buffer (50 mM Hepes, 100 mM NaCl, 1 mg/ml bovine serum albumin, 1 mg/ml a-chymotrypsin; pH 8). Succinyl-AAPF-pNA peptide substrate (Sigma) was dissolved to 3.2 mM in dried LiCl/trifluoroethanol. […] All solutions were equilibrated, and reactions conducted at 5° C. Reactions were initiated by mixing 95 μL reaction mix with 5 μL peptide preloaded in multiple wells of 96-well plates and measuring OD405 nm in each well at 6-sec intervals for 6 min using a BMG Polarstar Galaxy plate reader. Data were fitted with Graphpad Prism 6.0 to obtain first-order rate constants. Enzyme catalyzed rate constants were calculated by subtracting the rate constant from uncatalyzed reactions (no CypA), and the catalytic rate constants plotted as a function of inhibitor concentration to obtain IC50s (see […] et al., 2015, PLOS ONE).",
  "data": [
    {"smiles": "C/C=C/C[C@@H](C)[C@@H](O)[C@H]1C(=O)N[C@@H](CC)C(=O)N(C)[C@H](SCCN(C)C)C(=O)N(C)[C@@H](CC(C)(C)O)C(=O)N[C@@H](C(C)C)C(=O)N(C)[C@@H](CC(C)C)C(=O)N[C@@H](C)C(=O)N[C@H](C)C(=O)N(C)[C@@H](CC(C)C)C(=O)N(C)[C@@H](CC(C)C)C(=O)N(C)[C@@H](C(C)C)C(=O)N1C", "values": [
      {"measurement": "IC50", "result": "4 to 10", "unit": "nM"}
    ]}
  ]
}
